This test deals with T1, cannabinoidergic CB2 receptors (Rattus norvegicus, UniProt Q9QZN9).
T1 construct: the brain in toto (cerebellum excluded) and the spleen were rapidly dissected and maintained in ice; from tissue; host or cells: rat spleen, membrane preparation
T1 sequence (Q9QZN9 1-360): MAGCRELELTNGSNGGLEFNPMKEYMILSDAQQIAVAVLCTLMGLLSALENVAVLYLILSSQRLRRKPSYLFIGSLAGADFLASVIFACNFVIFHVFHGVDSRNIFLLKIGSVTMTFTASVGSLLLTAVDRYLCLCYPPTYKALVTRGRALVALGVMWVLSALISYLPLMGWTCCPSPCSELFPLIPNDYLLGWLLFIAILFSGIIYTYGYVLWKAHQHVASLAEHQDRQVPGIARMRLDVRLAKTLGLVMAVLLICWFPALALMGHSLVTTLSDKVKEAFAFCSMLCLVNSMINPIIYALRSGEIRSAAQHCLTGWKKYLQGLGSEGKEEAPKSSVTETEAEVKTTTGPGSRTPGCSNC
The test can be described thus: Radioreceptorial binding, [3H]-CP-55,940 competition, rat spleen membranes. As to conditions: 1 nM [3H]-CP55,940. As for the experimental part:
The affinity of the synthesized compounds towards the cannabinoidergic CB1 and CB2 receptors was evaluated in vitro through radioreceptorial binding studies by utilizing the following method.
The receptorial binding technique allows indeed to establish if and with what affinity and specificity a determined compound binds itself to a particular receptor. To evaluate the possible affinity of a determined compound towards a particular receptor it is necessary to make to compete (in a particular preparation of the tissue in which those determined receptors are present) the compound to be tested with another compound whose affinity is known and whose molecule was rendered radioactive. […] The reading of the radioactivity present in the receptor-compound complex allows furthermore to calculate with extreme precision the amount of compound bound to the receptor. […]
The obtained membranes (50-80 μg of proteins) were incubated in the presence of 1 nM di[^3H]-CP55,940 for 1 h at 30° C. in a final volume of 0.5 ml of TME buffer containing 5 mg/ml of bovine serum albumin (BSA). The non specific binding was measured in the presence of CP55,940 at the 1 μM concentration. […]
The radioactivity present in the filters was measured by a scintillator spectrophotometer (Tricarb 2100, Packard, Meridien, USA). […]

“N-piperidino-5-(4-chlorophenyl)-1-(2,4-dichlorophenyl)-4-methylpyrazol-3-carboxyamide [SR141716A, reference compound]”: the Ki (usually a measure of affinity in units of concentration, obtained from inhibition or displacement) is 514 ± 30 nM.

Source of the values: US8106218B2, “Pharmaceutical compounds” (Neuroscienze Pharmaness S.C. A R.L., priority 2004, dated 2012).
